# Measured values from PubChem BioAssay AID1671188 (National Center for Advancing Translational Sciences (NCATS), 2021).
# Sequences of proteins named here, by UniProt entry; tags and fusion partners are left off.
# UniProt Q8TD30, whole entry: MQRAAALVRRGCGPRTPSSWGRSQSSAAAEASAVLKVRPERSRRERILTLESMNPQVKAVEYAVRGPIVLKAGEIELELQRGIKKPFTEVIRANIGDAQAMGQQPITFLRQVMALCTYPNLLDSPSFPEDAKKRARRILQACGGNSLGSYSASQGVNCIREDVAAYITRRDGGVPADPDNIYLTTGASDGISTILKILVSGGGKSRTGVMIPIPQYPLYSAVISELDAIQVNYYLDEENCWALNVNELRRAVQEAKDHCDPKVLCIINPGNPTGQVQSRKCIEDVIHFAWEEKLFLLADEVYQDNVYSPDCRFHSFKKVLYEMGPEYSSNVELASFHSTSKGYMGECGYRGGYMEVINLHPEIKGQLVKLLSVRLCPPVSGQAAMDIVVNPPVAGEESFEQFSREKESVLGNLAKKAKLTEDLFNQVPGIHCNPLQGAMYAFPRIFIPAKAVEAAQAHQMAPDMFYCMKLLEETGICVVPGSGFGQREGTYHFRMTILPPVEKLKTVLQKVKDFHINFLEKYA
# The entries are a selection whose mix differs from that of the whole data set. Records with an inconclusive call do not appear. The source made the active and inactive calls. Calls follow the shape of the dose curve; as a rule, active = well fitted inhibition curve with a large enough effect; inconclusive = small, poorly fitted or top-dose-only effect; inactive = flat fitted curve, though single readings scatter.
# Target: Alanine aminotransferase 2 (Homo sapiens) (UniProt Q8TD30)
# Experiment: Primary qHTS assay for inhibitors of Glutamate pyruvate transaminase 2 (GPT2); also: nearly all actives have a fitted effect of over 60% in size
# Details: Recombinant GPT2, coupled pyruvate oxidase/HRP Amplex Red fluorescence; activity change, negative = inhibition: at 57.7 µM (top of the series) unless noted
# Protocol: Assay Provider: Zhenghe John Wang Ph.D.
# Case Western Reserve University, Cleveland OH
# Glutamate pyruvate transaminase 2 (GPT2) catalyzes the reversible transamination of glutamate and pyruvate to provide a-ketoglutarate and alanine. We have optimized an assay for GPT2 enzymatic activity that couples pyruvate formation to detection of fluorescence using an established pyruvate oxidase/horseradish peroxidase / Amplex Red system.
# Screening conditions were 250uM a-KG, 2mM L-alanine, and 10ng/uL GPT2 in […] of solution; 10uL of Amplex reaction mix (outlined below) were added so that final concentrations of Amplex reagents in 50uL were 0.2mM ThPP, 0.2U/mL PO and HRP, and 50uM Amplex.
# NOTE: The volume of GPT2 in the system depends on the activity of it. The activity is different every batch. You need to test the activity before the assay. For full plate assay with automation, plate 20uL of GPT2 buffer to pin into, then add 10uL of GPT2 dilution followed immediately by 10uL of substrate dilution. 2 Columns of the plate were devoted to GPT2 buffer ([…] PH7.5, 0.0001% Tween) + 50uM AOA (known GPT2 inhibitor) to serve as a positive control. Complete the assay as normal. Amplex-red buffer: […] PH7.5, 1 mM EDTA, 1 mM MgCl2.
# 1. Combine a-KG and L-alanine at desired concentrations and incubate for at least 10 minutes at 37C. Stocks of L-alanine and a-KG are diluted in distilled water. However, the stocks were diluted in GPT2 buffer for the assay.
# 2. Prepare GPT2 dilution at the desired concentration in GPT2 buffer.
# 3. Plate 40uL of GPT2 dilution with 40uL of substrate dilution and let incubate for 30 minutes at room temperature.
# 4. Add 20uL of Amplex reaction mix prepared as follows: 1.5uL 200U/mL Horseradish Peroxidase, 200mM Thiamine Pyrophosphate, 200U/mL Pyruvate Oxidase; 7.5uL 10mM Amplex Red; 288uL Amplex Buffer.
# 5. Incubate for 30 minutes at room temperature in the dark, then image using AM_Amplex_Fluorescence on plate reader nearest the window.
# % is scaled to controls: 0 for no effect and ±100 for the full control effect.
SMILES,"activity change, negative = inhibition",outcome
CN(CCCl)CCCl,inactive: -17.6%,inactive [at 57.7 µM]
CCC(=O)N(c1ccccc1)C1(COC)CCN(CCn2nnn(CC)c2=O)CC1,–,inactive
